Measured values: publication PMC9320654, “Study on In Vitro Metabolism and In Vivo Pharmacokinetics of Beauvericin” (Toxins, 2022)

What was measured:
[1] = Metabolic stability in liver microsomes, CLM
[2] = Plasma stability, monkey plasma; assay type: in vitro ADME
Procedure: (§1) The pooled frozen plasma was thawed in a water bath at 37 °C prior to the experiment. Plasma was centrifuged at 4000 rpm for 5 min, and the clots, if any, were removed. Using an Apricot automation workstation, blank plasma (98 μL/well) was added to six 96-well reaction plates (Blank, T0, T10, T30, T60, and T120). An Apricot automation workstation was used to add working solution (2 μL/well, 100 μM) to all reaction plates except the Blank plate (T0, T10, T30, T60, and T120). All reaction plates containing mixtures of compound and plasma were incubated at 37 °C in a water bath. At the end of the incubation, 400 μL of stop solution (200 ng/mL tolbutamide and 200 ng/mL labetalol in acetonitrile) was added to precipitate the protein, and the mixture was mixed thoroughly. Samples were then vortexed and centrifuged (20 min, 4000 rpm, 4 °C). After centrifugation, an Apricot automation workstation was used to transfer 50 μL of supernatant into 100 μL of HPLC water. […] The % remaining test compound after incubation in plasma was calculated using the following equation:(11) % Remaining= PAR at appointed incubation time/PAR at T0 time×100 where PAR is the peak area ratio of analyte versus internal standard (IS). […]

[3] = Plasma stability, dog plasma; assay type: in vitro ADME
Procedure: as §1

[4] = PK experiments in rats after intravenous or oral administration; assay type: in vivo, Sprague Dawley rat; settings: rat, n = 3
Procedure: The PK of BEA were evaluated in cannulated male Sprague Dawley rats following an intravenous infusion (1 h) or oral dosing, with N = 3 for each route of administration. Sprague Dawley rats weighing 210 ± 10 g each were obtained from Vital River Laboratory Animal Technology Co., Ltd. (Beijing, China), and were used for pharmacokinetic assessment. All protocols involving animals were approved by the XBL-China Institutional Animal Care and Use Committee (IACUC No.2020-007). Animals were treated in accordance with the Animal Welfare Act and the “Guide for the Care and Use of Laboratory Animals” (NIH Publication 86-23, revised 1985). The animals were supplied with water and a commercial rodent diet ad libitum prior to study initiation. The rats were administered BEA as an intravenous infusion at a dose of 0.5 mg/kg and orally at a dose of 2 mg/kg, respectively. The animals were dosed via the appropriate route at time 0, and samples were collected at several time points up to 24 h following dose administration. Following intravenous infusion administration, blood samples were collected from the jugular vein cannula at predose as well as at 0.083, 0.25, 0.5, 1, 2, 4, 8, and 24 h postdose of BEA. […] Noncompartmental PK parameters such as area under the curve (AUC) and T1/2 were calculated using WinNonlin Professional (version 6.3, Pharsight, Sunnyvale, CA, USA). The absolute oral bioavailability of BEA in rats was calculated by the AUC(0−∞) ratio obtained following oral and i.v. administration. […]
Blood concentration–time curves obtained for each compound were analyzed by means of noncompartmental PK analysis with WinNonlin Professional (version 6.3, Pharsight, Sunnyvale, CA, USA). Following intravenous infusion or bolus administration, the elimination T1/2, total AUC, AUC0−t, systemic blood clearance, and steady-state volume of distribution were calculated using the appropriate noncompartmental model (constant infusion, bolus intravenous injection, and extravascular, respectively). Following oral dosing, Cmax, Tmax, AUC0−t, and AUC0−∞ were calculated. […]

[5] = Plasma stability, rat plasma; assay type: in vitro ADME
Procedure: The pooled frozen plasma was thawed in a water bath at 37 °C prior to the experiment. Plasma was centrifuged at 4000 rpm for 5 min, and the clots, if any, were removed. Using an Apricot automation workstation, blank plasma (98 μL/well) was added to six 96-well reaction plates (Blank, T0, T10, T30, T60, and T120). An Apricot automation workstation was used to add working solution (2 μL/well, 100 μM) to all reaction plates except the Blank plate (T0, T10, T30, T60, and T120). All reaction plates containing mixtures of compound and plasma were incubated at 37 °C in a water bath. At the end of the incubation, 400 μL of stop solution (200 ng/mL tolbutamide and 200 ng/mL labetalol in acetonitrile) was added to precipitate the protein, and the mixture was mixed thoroughly. Samples were then vortexed and centrifuged (20 min, 4000 rpm, 4 °C). After centrifugation, an Apricot automation workstation was used to transfer 50 μL of supernatant into 100 μL of HPLC water. The positive compounds, such as propantheline bromide (Lot#: R000190915), enalapril maleate salt (Lot#: MKBR8243V), bisacodyl (Lot#: 5-XJZ-44-1), procaine hydrochloride (Lot#: UCFUA-FH), were incubated in parallel with the BEA samples. […] The % remaining test compound after incubation in plasma was calculated using the following equation:(11) % Remaining= PAR at appointed incubation time/PAR at T0 time×100 where PAR is the peak area ratio of analyte versus internal standard (IS).
The appointed incubation time points are T0 (0 min), Tn (n = 0, 10, 30, 60, 120 min).

[6] = Metabolic stability in cryopreserved hepatocytes, monkey; assay type: in vitro ADME, cynomolgus monkey; settings: 0.5 × 10^6 cells/mL, 1 μM, n = 2
Procedure: (§2) BEA (10 mM) was incubated in duplicate in a 96-well plate containing a suspension of mouse, rat, monkey, dog, or human hepatocytes (0.5 × 10^6 cells/mL) at 37 °C for 1.5 h in a controlled atmosphere (5% CO2, 95% humidified incubator). BEA and the control were prepared with 50 μL of DMSO and 450 μL of acetonitrile (ACN) to achieve a final concentration of 1 μM, and then spiked into each well of 96-well plates in duplicates. Samples were withdrawn from the reaction mixture at 0, 15, 30, 60, and 90 min and were quenched with stop solution (acetonitrile containing 200 ng/mL tolbutamide and 200 ng/mL labetalol as internal standards). A cocktail of 7-ethoxycoumarin (Lot#: I1825085) was used as the positive control for the assay. The analytical plates were sealed and stored at 4 °C until LC-MS/MS analysis. The data obtained from the BEA metabolic stability assays were used to calculate the intrinsic clearance and remaining percentages, as described in Table 4 and Figure 4.
(§3) The remaining percentages of test articles after incubation were calculated by the following equations:(7) %Remainingat Appointed Time=Peak Area Ratios of Test Article versus Internal Standard at Appointed Time/Peak Area Ratios of Test Article versus Internal Standard 0 min
(§4) We used the equation of first order kinetics to calculate T1/2 and CLint: […]

[7] = Metabolic stability in cryopreserved hepatocytes, dog; assay type: in vitro ADME, beagle dog
Procedure: as §2, §3, §4

[8] = Metabolic stability in liver microsomes, MLM
[9] = test system: human plasma proteins
[10] = Metabolic stability in liver microsomes, RLM; assay type: in vitro ADME, Sprague Dawley rat
[11] = Metabolite identification by LC-UV-MS^n in rat liver microsomes; assay type: in vitro ADME; settings: RLM
Procedure: The objectives of this study were to search for and to identify the metabolites of BEA in liver microsomes from mice, rats, dogs, monkeys and humans by LC-UV-MS^n (n = 1~2) (based on peak intensity ≥ 1% of total drug related components), and to propose its metabolic pathways.
The test compound BEA at 10 µM was incubated with liver microsomes at 37 °C for 60 min. The positive control, 7-ethoxycoumarin (7-EC) at 10 µM, was run concurrently to assess Phase I metabolic activities in liver microsomes. […] After incubation, the samples were analyzed by LC-UV-MS (Table S7). The structures of the metabolites were proposed based on the interpretation of their MS and MS2 data. The results are presented in Table 6 and Figure 6. %Total=Peak Area of a Releted Component/Peak Area of Total Releted Component×100%

[12] = Metabolic stability in liver microsomes, DLM; assay type: in vitro ADME, beagle dog
Description: (§5) […]. […] […]

[13] = Metabolic stability in cryopreserved hepatocytes, rat; assay type: in vitro ADME, Sprague Dawley rat
Procedure: as §2, §3, §4

[14] = Plasma stability, mouse plasma; assay type: in vitro ADME; settings: mouse plasma (stated for the plasma of the five species)
Procedure: as §1

[15] = Metabolic stability in cryopreserved hepatocytes, mouse; assay type: in vitro ADME, CD-1 mouse
Procedure: as §2, §3, §4

[16] = Plasma stability, human plasma; assay type: in vitro ADME; settings: human plasma (stated for the plasma of the five species)
Procedure: as §1

[17] = Metabolic stability in cryopreserved hepatocytes, human; assay type: in vitro ADME; settings: 0.5 × 10^6 cells/mL, 1 μM, n = 2
Procedure: as §2, §3, §4

[18] = Metabolic stability in liver microsomes, HLM; assay type: in vitro ADME, human
Description: as §5

## Beauvericin
[1]
  CLint(mic): 191.1 µL/min/mg
[1]; 1 μM, NADPH, n = 2
  T1/2: 7.3 min
[2]; monkey plasma (stated for the plasma of the five species)
  T1/2 in plasma: approximately 5 h
[2]; monkey plasma, 120 min
  Remaining % (T = 120 min): 103.7%
[3]; 37 °C, n = 2
  T1/2: >289 min
[3]; 120 min
  Remaining % (T = 120 min): 113.1%
[4]; i.v., 0.5 mg/kg
  AUC0−t: 339.0 ± 66.8 ng·h/mL
  CL: 23.9 ± 4.3 mL/min/kg
[4]; p.o., 2 mg/kg
  AUC0−t: 393.0 ± 54.6 ng·h/mL
[5]; rat plasma (stated for the plasma of the five species)
  T1/2 in plasma: approximately 5 h
[5]; rat plasma, 37 °C, n = 2
  T1/2: >289 min
[5]; rat plasma, 120 min
  Remaining % (T = 120 min): 105.8%
[6]
  T1/2: 28.0 min
[7]
  CLint (hep) (μL/min/10^6): 89.0 μL/min/10^6
[8]
  CLint(mic): 112.7 µL/min/mg
[8]; 1 μM, NADPH, n = 2
  T1/2: 12.3 min
[9]
  Fu (%), unbound fraction: 0.12%
[9]; dialysis 5 h, 37 °C, BEA 2 μM, warfarin 1 μM, n = 3
  Bound Fraction (%): > 90% and 99.88 ± 3.53%
[10]
  CLint(mic): 54.2 µL/min/mg
[10]; 1 μM, NADPH, n = 2
  T1/2: 25.6 min
[11]
  Number of metabolites detected: 13
[12]
  CLint(mic): 228.7 µL/min/mg
[12]; 1 μM, NADPH, n = 2
  T1/2: 6.1 min
[13]; rat hepatocytes, 90 min
  Remaining % (T = 90 min): 39.8%
[13]; scaled from rat hepatocyte CLint
  CLint(liver): 85.7 mL/min/kg
[14]
  T1/2 in plasma: approximately 5 h
[15]; mouse hepatocytes, 0.5 × 10^6 cells/mL, 1 μM, n = 2
  T1/2: > 60 min and 71.7 min
[15]; scaled from mouse hepatocyte CLint
  CLint(liver): 229.7 mL/min/kg
[16]
  T1/2 in plasma: approximately 5 h
[17]
  T1/2: > 60 min and 83.3 min
[18]
  CLint(mic): 30.9 µL/min/mg
[18]; 1 μM, NADPH, n = 2
  T1/2: > 30 min and 44.9 min

Several values for one entry are separate records, joined by “and”; a condition that tells them apart may be missing. Identical values can stand only once.
